Results on seven substances are retold here after patent US9150840B2, “Isolated bacterial strain of Achromobacter sp. MTCC 5605 and a highly enantioselective epoxide hydrolase isolated therefrom” (COUNCIL OF SCIENTIFIC & INDUSTRIAL RESEARCH, priority 2011, dated 2015).

The assay concerns epoxide hydrolase from Achromobacter sp. MTCC 5605. The assay can be described thus: Effect of metal salts on styrene oxide hydrolysis by whole cells. Particulars: 5 mM metal salt, standard assay conditions.
Take Al2(SO4)3: the “Effect of metal salt on enzyme activity / enantioselectivity” value is recorded as “increased”.
The result for BaCl2 reads “no enantioselectivity”; that for CaCl2, “partially inhibited”.
The result for CuCl2 reads “increased”; that for FeCl3, “increased”; that for MgSO4, “almost no effect”.
The result for MnSO4 reads “no enantioselectivity”.
